Source: ChEMBL document CHEMBL6083289, “Deciphering the Therapeutic Potential of Novel Pentyloxyamide-Based Class I, IIb HDAC Inhibitors against Therapy-Resistant Leukemia” (J Med Chem, 2024)
Calls of active or inactive are those of the source. No cut-off for these calls is given here.

Sequences of proteins named here, by UniProt entry; tags and fusion partners are left off.
UniProt Q13547, whole entry: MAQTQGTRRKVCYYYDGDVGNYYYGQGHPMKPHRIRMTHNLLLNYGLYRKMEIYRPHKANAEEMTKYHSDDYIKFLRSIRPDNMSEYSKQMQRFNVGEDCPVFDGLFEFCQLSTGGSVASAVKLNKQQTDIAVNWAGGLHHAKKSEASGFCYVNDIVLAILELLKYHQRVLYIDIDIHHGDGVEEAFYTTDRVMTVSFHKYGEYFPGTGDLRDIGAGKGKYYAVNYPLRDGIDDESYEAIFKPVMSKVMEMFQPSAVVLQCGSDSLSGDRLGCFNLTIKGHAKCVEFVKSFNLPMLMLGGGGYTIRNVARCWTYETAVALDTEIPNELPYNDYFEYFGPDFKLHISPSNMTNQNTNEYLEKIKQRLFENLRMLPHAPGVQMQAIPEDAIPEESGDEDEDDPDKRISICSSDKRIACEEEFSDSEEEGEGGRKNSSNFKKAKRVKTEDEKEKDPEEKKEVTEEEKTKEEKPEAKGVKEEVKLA

Tests used:
[1] = molecular target: T1, Protein deacetylase HDAC6 (Homo sapiens) (UniProt Q9UBN7); assay: Inhibition of HDAC6 in human HL-60 cells assessed as increase in alpha-tubulin acetylation at […] incubated for 24 hrs by Western blot analysis; format: cell-based; settings: dose 0.25 µM
T1 sequence (whole entry): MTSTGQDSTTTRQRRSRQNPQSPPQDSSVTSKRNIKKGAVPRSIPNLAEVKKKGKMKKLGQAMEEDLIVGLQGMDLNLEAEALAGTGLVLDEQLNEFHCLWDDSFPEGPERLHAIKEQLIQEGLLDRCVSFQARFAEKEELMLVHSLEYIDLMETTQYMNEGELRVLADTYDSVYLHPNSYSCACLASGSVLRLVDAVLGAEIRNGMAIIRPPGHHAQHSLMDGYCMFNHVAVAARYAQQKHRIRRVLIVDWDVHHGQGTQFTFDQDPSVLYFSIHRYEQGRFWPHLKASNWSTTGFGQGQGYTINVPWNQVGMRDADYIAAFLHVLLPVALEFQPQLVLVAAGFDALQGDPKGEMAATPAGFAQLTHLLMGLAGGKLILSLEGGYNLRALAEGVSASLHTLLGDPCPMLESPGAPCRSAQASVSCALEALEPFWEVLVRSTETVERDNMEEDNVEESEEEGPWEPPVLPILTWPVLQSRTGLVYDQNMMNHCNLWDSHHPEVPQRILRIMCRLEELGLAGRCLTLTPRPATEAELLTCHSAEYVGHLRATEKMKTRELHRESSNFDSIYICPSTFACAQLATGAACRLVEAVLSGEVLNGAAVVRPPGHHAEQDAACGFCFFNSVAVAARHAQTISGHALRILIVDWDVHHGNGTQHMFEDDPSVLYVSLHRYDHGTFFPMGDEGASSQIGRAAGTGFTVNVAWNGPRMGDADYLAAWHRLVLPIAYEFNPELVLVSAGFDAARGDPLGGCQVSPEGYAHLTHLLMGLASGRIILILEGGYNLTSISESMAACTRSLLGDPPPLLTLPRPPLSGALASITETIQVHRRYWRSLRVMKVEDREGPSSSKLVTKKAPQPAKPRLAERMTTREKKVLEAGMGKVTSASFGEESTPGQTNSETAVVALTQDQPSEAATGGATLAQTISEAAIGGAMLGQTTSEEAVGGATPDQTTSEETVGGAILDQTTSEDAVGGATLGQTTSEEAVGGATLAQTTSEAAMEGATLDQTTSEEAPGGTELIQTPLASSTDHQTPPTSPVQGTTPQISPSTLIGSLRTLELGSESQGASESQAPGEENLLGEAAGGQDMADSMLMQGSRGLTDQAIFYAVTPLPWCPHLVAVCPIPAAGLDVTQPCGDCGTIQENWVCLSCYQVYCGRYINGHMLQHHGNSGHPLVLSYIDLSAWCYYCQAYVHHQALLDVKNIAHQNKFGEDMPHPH

Histone deacetylase 1 = Histone deacetylase 1 (Homo sapiens, UniProt Q13547); assay: Inhibition of HDAC1 in human HL-60 cells assessed as increase in histone H3 acetylation at […] incubated for 24 hrs by Western blot analysis; format: cell-based; settings: dose 0.25 µM

| inhibition [1] | inhibition (Histone deacetylase 1) | SMILES |
| --- | --- | --- |
| Active | Active | O=C(CCCCCONC(=O)c1nc(-c2cc3ccccc3o2)cs1)NO |
| Active | Active | O=C(CCCCCONC(=O)c1nc(-c2ccc(N3CCCC3)cc2)cs1)NO |
| Active | Active | COc1ccc(-c2csc(C(=O)NOCCCCCC(=O)NO)n2)cc1 |
